In publication PMC2263054, “Functional evolution of the vitamin D and pregnane X receptors” (BMC Evolutionary Biology, 2007):

What was measured:
Mouse VDR = molecular target: T1, Mouse VDR (Mus musculus, UniProt P48281); assay: luciferase reporter transactivation assay in HepG2-NTCP cells, full-length mVDR with CYP3A4-PXRE-Luc; details: relative to maximal reference compound (0.5 μM calcitriol, efficacy = 1.0)
T1 sequence (P48281 1-422): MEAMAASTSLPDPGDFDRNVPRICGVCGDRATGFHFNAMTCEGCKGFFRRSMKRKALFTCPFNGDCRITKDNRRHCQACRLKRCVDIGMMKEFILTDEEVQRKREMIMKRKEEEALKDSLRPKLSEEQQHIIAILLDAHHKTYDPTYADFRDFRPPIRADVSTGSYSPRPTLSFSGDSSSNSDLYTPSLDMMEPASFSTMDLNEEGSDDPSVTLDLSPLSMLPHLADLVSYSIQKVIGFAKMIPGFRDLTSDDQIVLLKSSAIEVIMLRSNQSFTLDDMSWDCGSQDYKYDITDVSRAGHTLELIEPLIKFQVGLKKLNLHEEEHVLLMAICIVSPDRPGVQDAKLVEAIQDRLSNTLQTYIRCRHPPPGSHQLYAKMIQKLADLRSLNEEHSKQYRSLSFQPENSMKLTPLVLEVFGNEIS

Xenopus laevis VDR = molecular target: T2, Xenopus laevis VDR (Xenopus laevis, UniProt O13124); assay: luciferase reporter transactivation assay in HepG2-NTCP cells, GAL4/xlVDR LBD chimera with tk-UAS-Luc; type: cell-based; details: relative to maximal reference compound (1 μM calcitriol, efficacy = 1.0)
T2 sequence (O13124 90-422): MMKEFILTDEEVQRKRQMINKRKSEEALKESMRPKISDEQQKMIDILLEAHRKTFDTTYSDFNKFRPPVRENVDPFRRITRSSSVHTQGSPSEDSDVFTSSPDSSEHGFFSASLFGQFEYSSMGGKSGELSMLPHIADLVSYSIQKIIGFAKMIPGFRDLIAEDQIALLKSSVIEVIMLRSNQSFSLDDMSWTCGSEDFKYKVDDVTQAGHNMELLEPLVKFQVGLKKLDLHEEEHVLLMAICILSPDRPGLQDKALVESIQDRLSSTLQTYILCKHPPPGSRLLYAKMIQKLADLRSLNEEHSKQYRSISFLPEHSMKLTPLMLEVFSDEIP

Ciona VDR/PXR = details: HepG2-NTCP cells, luciferase reporter; unit not given; also cells saying No effect
Sea lamprey VDR [1] = molecular target: T3, Sea lamprey VDR (Petromyzon marinus, UniProt Q7ZZY9); assay: cell-based
T3 sequence (Q7ZZY9 92-406): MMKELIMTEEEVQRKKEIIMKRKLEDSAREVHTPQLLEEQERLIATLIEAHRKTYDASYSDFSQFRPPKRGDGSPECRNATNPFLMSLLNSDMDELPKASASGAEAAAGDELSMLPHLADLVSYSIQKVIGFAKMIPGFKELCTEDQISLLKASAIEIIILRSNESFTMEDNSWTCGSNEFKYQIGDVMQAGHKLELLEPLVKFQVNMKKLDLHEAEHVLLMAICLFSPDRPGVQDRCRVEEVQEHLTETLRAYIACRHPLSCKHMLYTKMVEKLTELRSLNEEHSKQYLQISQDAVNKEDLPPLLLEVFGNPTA

Human VDR = molecular target: T4, Human VDR (Homo sapiens, UniProt P11473); assay: luciferase reporter transactivation assay in HepG2-NTCP cells, full-length hVDR with CYP3A4-PXRE-Luc; details: relative to maximal reference compound (1 μM calcitriol, efficacy = 1.0)
T4 sequence (P11473 1-427): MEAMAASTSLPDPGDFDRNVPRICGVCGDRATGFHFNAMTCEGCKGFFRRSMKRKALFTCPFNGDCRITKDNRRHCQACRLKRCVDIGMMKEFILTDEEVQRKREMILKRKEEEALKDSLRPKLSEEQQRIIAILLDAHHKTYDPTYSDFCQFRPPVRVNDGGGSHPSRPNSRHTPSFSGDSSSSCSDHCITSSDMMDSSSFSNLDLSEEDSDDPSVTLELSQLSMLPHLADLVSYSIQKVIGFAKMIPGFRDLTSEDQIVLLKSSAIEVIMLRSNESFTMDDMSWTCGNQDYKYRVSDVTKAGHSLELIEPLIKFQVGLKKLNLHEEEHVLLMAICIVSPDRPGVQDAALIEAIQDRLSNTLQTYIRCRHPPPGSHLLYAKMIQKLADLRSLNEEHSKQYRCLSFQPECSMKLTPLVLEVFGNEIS

Zebrafish VDR = molecular target: T5, Zebrafish VDR (Danio rerio, UniProt Q9PTN2); assay: luciferase reporter transactivation assay in HepG2-NTCP cells, GAL4/zfVDR LBD chimera with tk-UAS-Luc; type: cell-based; details: relative to maximal reference compound (1 μM calcitriol, efficacy = 1.0)
T5 sequence (Q9PTN2 121-453): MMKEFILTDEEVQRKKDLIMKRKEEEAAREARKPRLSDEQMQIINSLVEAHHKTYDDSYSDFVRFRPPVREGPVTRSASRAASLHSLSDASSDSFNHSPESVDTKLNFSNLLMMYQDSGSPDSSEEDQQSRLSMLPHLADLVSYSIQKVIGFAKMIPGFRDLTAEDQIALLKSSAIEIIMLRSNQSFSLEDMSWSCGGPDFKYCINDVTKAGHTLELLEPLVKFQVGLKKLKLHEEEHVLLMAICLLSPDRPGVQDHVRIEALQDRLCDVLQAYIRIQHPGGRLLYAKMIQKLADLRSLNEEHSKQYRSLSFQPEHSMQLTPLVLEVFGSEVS

Sea lamprey VDR [2] = molecular target: T3, Sea lamprey VDR; details: relative to maximal reference compound (0.5 μM calcitriol, efficacy = 1.0)

`C=C1/C(=C\C=C2/CCC[C@]3(C)[C@@H]([C@H](C)/C=C/[C@H](C)C(C)C)CC[C@@H]23)C[C@@H](O)C[C@@H]1O` was tested, and the “Mouse VDR relative efficacy” value (Mouse VDR) was 0.98, the “Xenopus VDR relative efficacy” value (Xenopus laevis VDR) was 0.58 and the “Ciona VDR/PXR EC50 ± SD” value (Ciona VDR/PXR) was “No effect”. The EC50 (Sea lamprey VDR [1]) was 41 ± 3.6 nM, the “Human VDR relative efficacy” value (Human VDR) was 0.88 and the “Zebrafish VDR relative efficacy” value (Zebrafish VDR) was 0.78. The “Sea lamprey VDR relative efficacy” value (Sea lamprey VDR [2]) was 0.88.
